Measurements as given in patent US20020068351A1, “Human brain phosphodiesterase” (SmithKline Beecham Corporation, priority 1994, published 2002).

By UniProt entry, the sequences of proteins in these tests, tags left out. Residues count along the entry.
UniProt P27815, 1-686 isoform P27815-3: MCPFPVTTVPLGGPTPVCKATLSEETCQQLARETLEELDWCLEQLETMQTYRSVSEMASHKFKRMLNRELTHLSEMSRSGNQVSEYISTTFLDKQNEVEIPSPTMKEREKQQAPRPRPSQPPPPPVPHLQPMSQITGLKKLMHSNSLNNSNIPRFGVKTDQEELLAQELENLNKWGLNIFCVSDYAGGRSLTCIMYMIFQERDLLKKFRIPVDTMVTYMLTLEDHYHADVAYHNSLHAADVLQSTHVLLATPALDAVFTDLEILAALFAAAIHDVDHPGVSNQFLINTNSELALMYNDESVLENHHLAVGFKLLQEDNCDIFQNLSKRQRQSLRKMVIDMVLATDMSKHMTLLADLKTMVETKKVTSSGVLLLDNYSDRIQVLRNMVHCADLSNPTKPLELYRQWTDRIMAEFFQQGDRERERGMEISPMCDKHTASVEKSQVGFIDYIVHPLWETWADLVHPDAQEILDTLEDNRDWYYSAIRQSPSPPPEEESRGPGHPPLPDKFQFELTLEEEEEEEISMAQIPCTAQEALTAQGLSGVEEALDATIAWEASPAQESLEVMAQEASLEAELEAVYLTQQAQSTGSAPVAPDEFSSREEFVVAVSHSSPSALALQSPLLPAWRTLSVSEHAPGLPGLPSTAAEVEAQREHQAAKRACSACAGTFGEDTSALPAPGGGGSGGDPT
UniProt Q07343, 1-564 isoform Q07343-2: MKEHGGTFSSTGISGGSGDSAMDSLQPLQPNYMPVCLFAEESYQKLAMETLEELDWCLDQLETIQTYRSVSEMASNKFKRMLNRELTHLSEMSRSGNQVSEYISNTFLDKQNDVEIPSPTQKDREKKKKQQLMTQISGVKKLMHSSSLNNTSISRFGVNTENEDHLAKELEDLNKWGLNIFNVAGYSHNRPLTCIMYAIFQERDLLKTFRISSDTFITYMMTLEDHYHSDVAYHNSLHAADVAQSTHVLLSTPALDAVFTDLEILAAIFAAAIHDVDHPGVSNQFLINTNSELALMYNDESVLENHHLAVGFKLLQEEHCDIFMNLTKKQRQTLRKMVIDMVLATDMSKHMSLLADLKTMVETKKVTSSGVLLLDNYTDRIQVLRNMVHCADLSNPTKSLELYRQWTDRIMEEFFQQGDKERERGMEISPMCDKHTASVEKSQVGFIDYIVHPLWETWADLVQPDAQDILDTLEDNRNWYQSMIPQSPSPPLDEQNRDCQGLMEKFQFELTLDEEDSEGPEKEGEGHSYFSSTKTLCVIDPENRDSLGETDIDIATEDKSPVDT

Assays:
hPDE IVA = hPDE IVA (Homo sapiens, UniProt P27815); conditions: Table I, data from Torphy et al. 1992, read-out: R-Rolipram Ki; cited from earlier work
hPDE IVB = hPDE IVB (Homo sapiens, UniProt Q07343); test: PDE assay: cAMP hydrolysis by recombinant hPDE IVB in yeast lysate supernatant; conditions: inhibition of cAMP hydrolysis, recombinant hPDE IVB expressed in yeast

Ki (hPDE IVB): 0.085 µM
Substance: R-rolipram
Ki (hPDE IVA): 0.06 µM
